Data taken from patent publication US20130211351A1, “Pharmaceutical patch for transdermal administration of (1r,4r)-6'-fluoro-N,N-dimethyl-4-phenyl-4',9'-dihydro-3'H-spiro[cyclohexane-1,1'-pyrano[3,4-b]indol]-4-amine” (published 2013).
Read-outs that look alike come from different tables or passages of the source.

What was measured:
[1] = partition coefficient in the system octanol/water (log P)
[2] = intravenous pharmacokinetic reference in Sprague-Dawley rat; details: API free base i.v., 32 μg/animal (160 μg/kg)
[3] = plasma pharmacokinetics and bioavailability in female minipigs; details: female minipig, i.v. reference, 648 μg/animal
[4] = plasma pharmacokinetics, bioavailability and flux in male minipigs
[5] = solubility of API free base in liquid permeation enhancer substances
[6] = study 1, Solution 12A, 52 μg/kg (8.3 μg/animal), dermal
[7] = study 1, Solution 12A, 102 μg/kg (16 μg/animal), dermal
[8] = study 1, Solution 12A, 188 μg/kg (30 μg/animal), dermal
[9] = study 2, PEG 400, 750 μg/mL, 60%, 60 μg/animal, dermal
[10] = study 2, PEG 400, 3000 μg/mL, 60%, 300 μg/animal, dermal
[11] = study 3, PEG 400, 600 μg/mL, 12%, 60 μg/animal, dermal
[12] = study 4, PEG 400 in Finn chamber, 1000 μg/mL, 180 μL, 180 μg/animal
[13] = study 4, SEDDS in Finn chamber, 1000 μg/mL, 180 μL, 180 μg/animal
[14] = male minipig, i.v. reference, 564 μg/animal

In the case of “(1r,4r)-6′-fluoro-N,N-dimethyl-4-phenyl-4′,9′-dihydro-3′H-spiro[cyclohexane-1,1′-pyrano[3,4-b]indol]-4-amine”, the flux (PEG 400, 750 μg/mL, 60%, 60 μg/animal, size ~12 cm^2) is reported as 66 ng/cm^2/h, the “bioavailability of hemicitrate, fold lower compared to the API free base in PEG400” value (PEG400, hairless rats) is reported as “approximately 2.5 fold” and the flux (Solution 12A, 52 μg/kg (8.3 μg/animal), size ~12 cm^2) is reported as 28 ng/cm^2/h. For the same compound, the flux (Solution 12A, 102 μg/kg (16 μg/animal), size ~12 cm^2, based on load in solution) was 42 ng/cm^2/h, the flux (Solution 12A, 188 μg/kg (30 μg/animal), size ~12 cm^2) was 103 ng/cm^2/h and the AUC0-t [6] was 4.28 ± 1.09 ng·h/mL. For the same compound, the Cmax [6] was 0.240 ± 0.080 ng/mL, the tlast [6] was 34 h and the “F [T/R] (absolute bioavailability)” value (study 1, Solution 12A, 52 μg/kg (8.3 μg/animal), dermal vs. i.v.) was 99%. The AUC0-t [7] was 6.33 ± 2.30 ng·h/mL, the tlast [7] was 30 to 34 h and the “F [T/R] (absolute bioavailability)” value (study 1, Solution 12A, 102 μg/kg (16 μg/animal), dermal vs. i.v.) was 76%. For the same compound, the AUC0-t [8] was 15.5 ± 7.12 ng·h/mL, the Cmax [8] was 1.48 ± 1.26 ng/mL and the tlast [8] was 30 to 34 h. For the same compound, the “F [T/R] (absolute bioavailability)” value (study 1, Solution 12A, 188 μg/kg (30 μg/animal), dermal vs. i.v.) was 99%, the Cmax (study 2, PEG 400 (Solution 12B), 750 μg/mL, 60%, 60 μg/animal, dermal) was 0.47 ± 0.12 ng/mL and the AUC0-t [9] was 9.88 ± 1.73 ng·h/mL. The tlast [9] was 34 to 48.25 h and the “F [T/R] (absolute bioavailability)” value (study 2, PEG 400, 750 μg/mL, 60%, 60 μg/animal, dermal vs. i.v.) was 32%.

CN(C)[C@]1(c2ccccc2)CC[C@]2(CC1)OCCc1c3cc(F)ccc3[nH]c12 showed a flux (PEG 400, 600 μg/mL, 12%, 60 μg/animal, size ~12 cm^2) of 148 ng/cm^2/h, a flux (PEG 400, 3000 μg/mL, 60%, 300 μg/animal, size ~12 cm^2) of 852 ng/cm^2/h and a flux (PEG 400 in Finn chamber, 1000 μg/mL, 180 μg/animal, size ~3 cm^2) of 71 ng/cm^2/h. The flux (SEDDS in Finn chamber, 1000 μg/mL, 180 μg/animal, size ~3 cm^2) was 87 ng/cm^2/h, the AUC0-t [10] was 128 ± 26.8 ng·h/mL and the Cmax [10] was 8.51 ± 5.17 ng/mL. For the same compound, the tlast [10] was 48.25 h, the “F [T/R] (absolute bioavailability)” value (study 2, PEG 400, 3000 μg/mL, 60%, 300 μg/animal, dermal vs. i.v.) was 82% and the AUC0-t [11] was 22.3 ± 11.8 ng·h/mL. For the same compound, the Cmax [11] was 1.88 ± 1.33 ng/mL, the tlast [11] was 34 to 51.25 h and the “F [T/R] (absolute bioavailability)” value (study 3, PEG 400, 600 μg/mL, 12%, 60 μg/animal, dermal vs. i.v.) was 71%. For the same compound, the Cmax (study 4, PEG 400 in Finn chamber (~3 cm^2), 1000 μg/mL, 180 μL, 180 μg/animal) was 0.208 ± 0.129 ng/mL, the “F [T/R] (absolute bioavailability)” value (study 4, PEG 400 in Finn chamber, 1000 μg/mL, 180 μg/animal, vs. i.v.) was 2.8% and the AUC0-t [12] was 2.66 ± 0.654 ng·h/mL. The tlast [12] was 51.25 h, the Cmax (study 4, SEDDS in Finn chamber (~3 cm^2), 1000 μg/mL, 180 μL, 180 μg/animal) was 0.171 ± 0.020 ng/mL and the AUC0-t [13] was 3.26 ± 1.01 ng·h/mL. The tlast [13] was 51.25 h, the partition coefficient (log P) [1] was 5.3 and the AUC0-t [2] was 16.1 ± 1.91 ng·h/mL. The Cmax [2] was 11.7 ± 0.940 ng/mL, the tlast [2] was 12 to 24 h and the AUC0-t ([2]; listed as reference) was 16.1 ± 1.91 (12%) h · ng/mL. The Cmax ([2]; listed as reference) was 11.7 ± 0.940 (79%) ng/mL, the AUC0-t [3] was 11.4 ± 0.82 ng·h/mL and the Cmax [3] was 6.97 ± 1.17 ng/mL. For the same compound, the tlast [3] was 36 to 48 h, the AUC ([4]; intravenous 40 μg/kg (564 μg/animal) to male pigs) was 12.3 ng·h/mL and the AUC0-t [4, 14] was 11.9 ± 1.33 ng·h/mL. The Cmax [4, 14] was 4.86 ± 1.47 ng/mL, the tlast [4, 14] was 36 to 48 h and the “solubility of API free base” value ([5]; in 1-Dodecanol) was 1.3 mg/mL. The “solubility of API free base” value ([5]; in Benzyl alcohol) was 5.3 mg/mL, the “solubility of API free base” value ([5]; in Caprylic acid) was 1.2 mg/mL and the “solubility of API free base” value ([5]; in Dibutylene sebacate) was 1.5 mg/mL. For the same compound, the “solubility of API free base” value ([5]; in Diethylene glycol monoethyl ether (Transcutol P)) was 6.3 mg/mL, the “solubility of API free base” value ([5]; in Ethyl oleate) was 0.5 mg/mL and the “solubility of API free base” value ([5]; in Glycerol) was 0.7 mg/mL. The “solubility of API free base” value ([5]; in Isopropyl myristate) was 0.7 mg/mL, the “solubility of API free base” value ([5]; in Isopropyl palmitate) was 0.5 mg/mL and the “solubility of API free base” value ([5]; in Laurocapram (Azone ®)) was 20.0 mg/mL. The “solubility of API free base” value ([5]; in Lauryl lactate) was 2.6 mg/mL, the “solubility of API free base” value ([5]; in Levulinic acid) was 11.7 mg/mL and the “solubility of API free base” value ([5]; in Oleyl oleate) was 1.4 mg/mL. For the same compound, the “solubility of API free base” value ([5]; in Polyethylene glycol 400) was 3.9 mg/mL, the “solubility of API free base” value ([5]; in Polysorbate 80) was 0.8 mg/mL and the “solubility of API free base” value ([5]; in Propylene glycol monolaurate) was 1.8 mg/mL. For the same compound, the “solubility of API free base” value ([5]; in Triacetine) was 0.6 mg/mL.
